## AlphaSeq binding of Ab-14 light chain variants to a spike HR2 peptide

Target: peptide PDVDLGDISGINAS, taken from heptad repeat 2 (HR2) of SARS-CoV-2 spike.

Parent: Ab-14, a human scFv built as VH, a 15-residue (Gly4Ser)3 linker, VL. Only the CDRs of the light chain vary.
VH: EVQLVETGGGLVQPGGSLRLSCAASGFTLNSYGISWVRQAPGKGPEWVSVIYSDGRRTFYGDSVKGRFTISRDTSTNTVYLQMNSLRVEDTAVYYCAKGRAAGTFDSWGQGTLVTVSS
VL: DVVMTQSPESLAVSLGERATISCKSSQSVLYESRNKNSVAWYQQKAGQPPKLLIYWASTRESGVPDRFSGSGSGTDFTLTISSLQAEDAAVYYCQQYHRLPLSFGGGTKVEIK

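Variants in AAYL50 differ from the parent at up to three CDR positions; double and triple changes were sampled at random. Affinity was read by AlphaSeq, a pooled yeast mating assay with surface-displayed partners. Binding brings cells together so that they mate, and sequencing counts the barcode pairs among the diploids. A regression on co-assayed BCL2-family reference pairs converts the normalised counts of each replicate to an apparent Kd. Mating was done three times.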

Variants are written as CDR1, CDR2 and CDR3 of the light chain (limits as in the source). Parent: KSSQSVLYESRNKNSVA, WASTRES, QQYHRLPLS.
The read-out is the apparent dissociation constant on a log10 scale (nM): the lower, the stronger.
Where no diploid with the target was found in that replicate, the entry reads "ND": below detection, most likely a poor binder, though not proof of it.

The variant KSSQSVLYESRNKNSVA / WESSRES / CQYHRLPLS showed ND, ND, ND.
The variant KTSQSVLYESRNKNSVK / WASTRES / QSYHRLPLS showed ND, 4.31, 4.15.
The variant KSMQSVLYESHNKNSVA / WASTRMS / QQYHRLPLS showed 0.32, 0.89, 0.42.
The variant NSSQSVLYISRNKNSVA / WASTRES / QQYSRLPLS showed 4.30, 4.04, 2.97.
The variant KSSQSVLYEEGNKNSVA / WASTRES / QRYHRLPLS showed 3.38, 3.14, ND.
The variant YSSQSVLYESRNKNSVM / WASTRES / QQYHWLPLS showed ND, 3.61, 5.99.
The variant CSSQSVLYESRNKNSVV / WASTRES / HQYHRLPLS showed ND, ND, ND.
The variant KSSQSVLYESSNKNSVA / WASKRES / QQYHRLPLS showed 0.46, 0.72, 0.58.
The variant KSSQPVLVESRNCNSVA / WASTRES / QQYHRLPLS showed 1.09, 1.17, 1.06.
The variant DSSQSVLYESRNKNSVA / WASTRES / QQYHILPLS showed ND, 3.33, ND.
The variant KSSRAVLYESRNKVSVA / WASTRES / QQYHRLPLS showed 2.33, 3.46, ND.
The variant KSSQSVLYESRTKNSVA / IASTRES / QQYHRLPLL showed ND, 5.01, ND.
The variant KSSQSVCYESRNKESVA / WASTRES / VQYHRLPLS showed 5.44, ND, ND.
The variant KSSQSVLYESRNKNSVA / WASTFCS / QQYHREPLS showed ND, ND, ND.
The variant KSSQSVLYTYRNKNSVA / WASTIES / QQYHRLPLS showed ND, 3.91, ND.
The variant KSSQSVFYESRNWNSVA / WASTRES / QNYHRLPLS showed ND, ND, ND.
The variant KSSQSVLYESRNRNSVS / WASTRES / QQYHRLWLS showed ND, ND, 4.97.
The variant KSSQYVCYESRNKNSVA / WASTRRS / QQYHRLPLS showed ND, ND, ND.
The variant KSSQSVLYESKNKNSVA / WQSTRES / QQYHRLPQS showed 4.82, 4.44, 4.88.
The variant KSSQSVLYESRNKNSVA / WASTRTN / QQYHRPPLS showed ND, ND, ND.
The variant VSSRGVLYESRNKNSVA / WASTRES / QQYHRLPLS showed 2.61, 2.65, 2.90.
The variant KSSQSVLYESRNKNSFA / WASTRES / QQYHRYRLS showed ND, 3.91, ND.
The variant KSSQSVPYESRNKNSVT / WASTRES / QQLHRLPLS showed ND, ND, ND.
The variant ASSQSSLYESRNANSVA / WASTRES / QQYHRLPLS showed 1.78, 1.64, 1.86.
The variant KSNQSVLYESRTKNSVA / WASTRES / QPYHRLPLS showed ND, ND, ND.
The variant KSSQSVLYESPNKNSVA / WASTREE / QQYHRLPVS showed 1.21, 1.47, 1.38.
The variant KSSNSVLYESMNKNSVA / QASTRES / QQYHRLPLS showed -0.01, 0.31, 0.10.
The variant KSSQKVLYESRHKNSVA / WASTRES / QQYHRLPLS showed 1.69, 1.76, 1.99.
The variant KSSQSVLYRSRNANSTA / WASTRES / QQYHRLPLS showed ND, ND, ND.
The variant KSSQSVLYESRNANAVA / WASTRES / QQYHRLPLS showed 0.49, 0.85, 0.49.
The variant KSSQSKLYESSNKNYVA / WASTRES / QQYHRLPLS showed ND, ND, 1.95.
The variant KSSQSVLYESRNKNSVT / WASQRES / QQYHRLPNS showed 4.10, ND, ND.
The variant KSSQSFLYESRNKNSVA / WASTRES / QQYHRLPLG showed 1.23, 1.41, 1.53.
The variant KSSFSVLYESRNKNSVV / WASTREF / QQYHRLPLS showed ND, ND, ND.
The variant KSSQSVLYESHNKNSVR / WANTRES / QQYHRLPLS showed ND, ND, 4.18.
The variant KSSVSVLYESRNKNSVA / WASTRES / QVYHRLPLS showed 2.92, 2.88, 3.06.
The variant KSSQSVLYSYRNKNSVA / WASTRES / QQYHRGPLS showed 5.28, ND, ND.
The variant KSSQEWLYESRNKNSVA / WASTRES / QQTHRLPLS showed 0.08, 0.39, 0.23.
The variant KSSQSVLYESRNKNSVA / HAHTRES / QQYHRLPSS showed 0.98, 1.10, 0.89.
The variant KSSQSVLYQSRNKNSVA / WASTRES / QKYHRLPLS showed 1.72, 1.74, 1.92.
The variant KSSQSVLLECRNKNSTA / WASTRES / QQYHRLPLS showed ND, 3.81, 4.59.
The variant KSSQSVVYESRNKNSGA / WASTRES / QQPHRLPLS showed ND, 4.40, ND.
The variant KSSGSVLYESRRKNSVA / WASTAES / QQYHRLPLS showed ND, ND, 4.19.

The first 7 variants above that were never detected:

Variant KSSQSVLYESRNKNSVA / WESSRES / CQYHRLPLS showed ND, ND, ND.
Variant CSSQSVLYESRNKNSVV / WASTRES / HQYHRLPLS showed ND, ND, ND.
Variant KSSQSVLYESRNKNSVA / WASTFCS / QQYHREPLS showed ND, ND, ND.
Variant KSSQSVFYESRNWNSVA / WASTRES / QNYHRLPLS showed ND, ND, ND.
Variant KSSQYVCYESRNKNSVA / WASTRRS / QQYHRLPLS showed ND, ND, ND.
Variant KSSQSVLYESRNKNSVA / WASTRTN / QQYHRPPLS showed ND, ND, ND.
Variant KSSQSVPYESRNKNSVT / WASTRES / QQLHRLPLS showed ND, ND, ND.

Parent in this assay: reference entry 0.65, copy in this library 1.68.
As a blank, each scFv also met three strains without target: over library AAYL50, 18% of these pairings were detected, typically at 4.19 and seldom below 2.99.

Reference: Engelhart et al. 2022, doi:10.1038/s41597-022-01779-4. File: FLAb, binding data.